From ChEMBL document CHEMBL4308823, “Small Molecule Mitochondrial Uncouplers and Their Therapeutic Potential” (J Med Chem, 2018)
This is a selection: effects in other tests are not listed, and their absence says nothing.

Assay: Toxicity in ip dosed Sprague-Dawley rat
Settings: in vivo

COc1ccc([N+](=O)[O-])cc1[N+](=O)[O-]
LD50: 350 mg/kg
